The data set has as its system rat hippocampus.
With “Aβ2A-42: amino-terminal variant of Aβx-42 starting with Ala at position 2, internally radiolabeled”, the “Half-life (in vivo half-lives of Aβx-42)” value worked out at 10.77 min. To “Aβ3E-42: amino-terminal variant of Aβx-42 starting with Glu at position 3, internally radiolabeled” belongs 12.51 min; to “Aβ4F-42: amino-terminal variant of Aβx-42 starting with Phe at position 4, internally radiolabeled”, 10.51 min.

The record behind these values is paper PMC11443169 (Life Science Alliance, 2024).
